Test results as given in US20090170867A1, “TRPV1 ANTAGONISTS INCLUDING SULFONAMIDE SUBSTITUENT AND USES THEREOF” (Shionogi & Co., Ltd., priority 2007, published 2009).

Amino acid sequences for entries named in this document (tags omitted).
UniProt Q8NER1, whole entry: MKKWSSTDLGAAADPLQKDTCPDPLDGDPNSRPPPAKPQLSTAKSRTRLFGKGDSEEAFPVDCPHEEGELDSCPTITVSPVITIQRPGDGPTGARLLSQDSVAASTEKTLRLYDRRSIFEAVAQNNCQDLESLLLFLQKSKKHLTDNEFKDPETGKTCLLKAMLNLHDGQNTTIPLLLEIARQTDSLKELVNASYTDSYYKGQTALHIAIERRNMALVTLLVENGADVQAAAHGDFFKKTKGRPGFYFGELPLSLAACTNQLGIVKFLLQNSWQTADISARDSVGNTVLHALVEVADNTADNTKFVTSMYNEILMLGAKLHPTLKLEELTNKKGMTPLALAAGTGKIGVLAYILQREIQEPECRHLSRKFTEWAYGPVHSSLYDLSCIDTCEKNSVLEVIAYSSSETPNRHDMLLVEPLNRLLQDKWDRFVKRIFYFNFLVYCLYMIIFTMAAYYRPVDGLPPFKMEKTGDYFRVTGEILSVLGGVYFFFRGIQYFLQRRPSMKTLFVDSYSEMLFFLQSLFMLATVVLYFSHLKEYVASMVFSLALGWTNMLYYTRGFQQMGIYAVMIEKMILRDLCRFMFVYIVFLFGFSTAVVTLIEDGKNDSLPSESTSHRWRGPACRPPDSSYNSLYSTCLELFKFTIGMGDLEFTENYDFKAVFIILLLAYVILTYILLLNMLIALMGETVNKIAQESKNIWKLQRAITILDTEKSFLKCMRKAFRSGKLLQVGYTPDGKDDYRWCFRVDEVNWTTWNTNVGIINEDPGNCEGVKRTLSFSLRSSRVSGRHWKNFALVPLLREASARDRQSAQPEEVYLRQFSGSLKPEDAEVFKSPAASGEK

What was measured:
[1] = target: T1, human TRPV1 (Homo sapiens, UniProt Q8NER1); assay: Capsaicin-based assay, Protocol 2 (TRPV1/CHO cells, Fluo-4, FLIPR); assay type: cell-based; conditions: capsaicin 100 nM final, mean ± SEM, number of trials in parentheses, read-out: TRPV1 IC50 Potency, Human Capsaicin CHO (hCAP-CHO)
T1 construct: using primers designed surrounding the complete hTRPV1 open reading frame; expressed in transfected cells; host or cells: CHO-K1 cells stably transfected with pcDNA3.1(-)-hVR1 plasmid
Text: The TRPV1/CHO cell line was generated as described below. […] The resulting PCR products were purified from agarose gels using Gel Band Purification Kit (GE Healthcare Bioscience) and were subcloned into pCR-Blunt vector (Invitrogen). The cloned cDNA was fully sequenced using a fluorescent dye-terminator reagent (BigDye Terminator ver3.1 Cycle Sequencing Kit, Applied Biosystems) and ABI Prism 3100 genetic analyzer (Applied Biosystems). The pCR-Blunt vector containing the hTRPV1 cDNA was subjected to restriction digestion with EcoRI. The restriction fragment was subcloned into expression vector pcDNA3.1 (-) (Invitrogen) and named pcDNA3.1 (-)-hVR1 plasmid. The sequence of the cDNA encoding TRPV1 is available at GenBank accession number AJ277028. […] The cells were transfected with the pcDNA3.1 (-)-hVR1 plasmid using FuGENE6 (Roche) according to the manufacturer's protocol. 24 hr after transfection, neomycin-resistant cells were selected using 1 mg/mL G418 (Nacalai Tesque). […] The cells expressing hTRPV1 were cultured in the growth medium supplemented with 1 mg/mL G418. […] Subsequently, the cells were loaded by incubation in 0.1 mL of wash buffer containing Fluo-4 at 3 μM final concentration. After 1 hour, the cells were washed twice with 0.2 mL wash buffer and resuspended in 0.1 mL wash buffer. The plates were then transferred to a Fluorescence Imaging Plate Reader (Molecular Devices). Fluorescence intensity was monitored for 15 seconds to establish a baseline. […] The final concentration of the compound was adjusted to range from 100 μM to 1.5625 μM. […] Data were collected over the entire time course and analyzed using Excel and the curve-fitting formula GraphPad Prism.

[2] = target: T1, human TRPV1; assay: pH-based assay, Protocol 2 (TRPV1/CHO cells, Fura-2 AM, FDSS-3000, pH 5.0-5.1); assay type: cell-based; conditions: H2SO4 agonist, mean ± SEM, number of trials in parentheses, read-out: TRPV1 IC50 Potency, Human pH CHO (hpH-CHO)
Text: For Protocol 2, a Chinese Hamster Ovary cell line (CHO) that has been engineered to constitutively express human recombinant TRPV1 was used (TRPV1/CHO cells). The TRPV1/CHO cell line was generated as described below.
The resulting PCR products were purified from agarose gels using Gel Band Purification Kit (GE Healthcare Bioscience) and were subcloned into pCR-Blunt vector (Invitrogen). The cloned cDNA was fully sequenced using a fluorescent dye-terminator reagent (BigDye Terminator ver3.1 Cycle Sequencing Kit, Applied Biosystems) and ABI Prism 3100 genetic analyzer (Applied Biosystems). The pCR-Blunt vector containing the hTRPV1 cDNA was subjected to restriction digestion with EcoRI. The restriction fragment was subcloned into expression vector pcDNA3.1 (−) (Invitrogen) and named pcDNA3.1 (−)-hVR1 plasmid. The sequence of the cDNA encoding TRPV1 is available at GenBank accession number AJ277028.
CHO-K1 cells were maintained in growth medium consisting of α-MEM, 10% FBS (Hyclone), and 100 IU/mL of penicillin-100 μg/mL of streptomycin mixed solution (Nacalai Tesque, Japan) at 37° C. in an environment of humidified 95% air and 5% CO2. […]
(5) The Fura-2 fluorescent intensity was monitored at a wavelength of 340 nm and at 380 nm, respectively, at a rate of 0.5 Hz for a total of 240 seconds.

| SMILES | IC50 [1] [µM] | IC50 [2] [µM] |
| --- | --- | --- |
| O=C(Nc1ccc(C(F)(F)F)cc1)N1CC=C(c2ncccc2Cl)CC1 [Compound 200] | 0.136 | 0.0318 |
| COCc1cnc(C2=CCN(C(=O)Nc3ccc(OC(F)(F)F)cc3)CC2)c(Cl)c1 [Compound G3] | 1.08 ± 0.202 | – |
| CN1CCCc2ccc(NC(=O)N3CCC(F)(c4ncccc4F)CC3)cc21 [Compound T4] | 1.33 ± 0.334 | 1.18 ± 0.147 |
| CCC(O)c1cnc(C2=CCN(C(=O)Nc3ccc(C(F)(F)F)cc3)CC2)c(Cl)c1 (stereo not drawn) [Compound U2] | 0.231 ± 0.0453 | – |
